GIV-Gai inh: inhibitors of GIV peptide binding to Galpha-i3, primary screen, biochemical, fluorescence polarization, FITC-GIV GBA peptide, rat Galphai3. Guanine nucleotide-binding protein G(i) subunit alpha-3 (Rattus norvegicus), P08753. 90 min; stronger effect = lower value; scaled: aluminum fluoride 0%, vehicle 100%. percent of control (FP), % (test concentration not listed). hit rate 0.42% among 210,000. AID 1224905, 2016;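 active = replicate mean at 85% of control or lower, very high polarization wells dropped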;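 note: wells of about 15 µL received 100 nL stock; the first replicate is given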
HCMV NEC inh: inhibitors of HCMV UL50-UL53 nuclear egress complex interaction; HTRF UL50-UL53 interaction, normalized percent inhibition; inhibition, % (no concentration beside the values); 190,000 tested, 0.15% active; AID 1918969; in the data active = inhibition above about 27%, passing the limit was not always enough
GIV Gai FP conf: confirmation of inhibitors of GIV binding to rat Galpha-i3 | fluorescence polarization, mP at 100 µM | shares compounds with GIV-Gai inh | AID 1259350 | FITC-GIV peptide binding to Galphai3, fluorescence polarization; stronger effect = lower value | 580 tested, 38% active;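 active = inhibition score of 15 or more, meaning 100 minus mean polarization as percent of control over three replicates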
GIV-Gai AS conf: GIV-Galpha-i3 inhibition, AlphaScreen confirmation; 580 tested, 39% active; shares compounds with GIV-Gai inh; AlphaScreen Galphai3-GIV binding, purified proteins, 90 min; stronger effect = lower value; AlphaScreen counts at 100 µM;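 active = inhibition score at or above a set limit, where the score is 100 minus the three-replicate mean percent of control signal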
An asterisk follows results filed as active; nt = no result given. Only a selection was taken, and hits are over-represented in it overall.

Sequences of proteins named here, by UniProt entry; tags and fusion partners are left off.
Guanine nucleotide-binding protein G(i) subunit alpha-3 (Rattus norvegicus), P08753, UniProt P08753, whole entry, looked up: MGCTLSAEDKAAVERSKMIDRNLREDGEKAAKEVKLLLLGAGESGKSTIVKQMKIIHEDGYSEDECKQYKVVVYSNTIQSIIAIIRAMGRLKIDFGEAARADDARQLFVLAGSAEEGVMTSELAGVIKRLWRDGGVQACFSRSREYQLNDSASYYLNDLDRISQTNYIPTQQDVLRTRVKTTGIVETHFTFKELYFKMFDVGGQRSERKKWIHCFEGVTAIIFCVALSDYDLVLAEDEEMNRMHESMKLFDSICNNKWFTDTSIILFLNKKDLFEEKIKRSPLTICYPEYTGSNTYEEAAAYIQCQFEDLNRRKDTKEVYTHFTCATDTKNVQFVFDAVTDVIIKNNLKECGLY

SMILES	GIV-Gai inh	HCMV NEC inh	GIV Gai FP conf	GIV-Gai AS conf
CN1C(C(=O)c2ccccc2)=C(NC(=O)c2ccccc2)c2ccccc2S1(=O)=O	67*	-5	66	42284
CCCCN(C)S(=O)(=O)c1ccc2c(c1)CC(C)N2C(C)=O (stereo not given)	100	-17	nt	nt
CN(CCCC(=O)O)S(=O)(=O)c1ccc2c(c1)Cc1cc(S(=O)(=O)N(C)CCCC(=O)O)ccc1-2	83*	nt	50*	26370*
[N-]=[N+]=c1c(=O)ccc2c(=O)c3ccccc3c(=O)c1=2	63*	-128	44*	2044*
COc1ccccc1C(=O)Nc1ccc2nc(SCC(=O)NCCOc3ccccc3)sc2c1	109	nt	nt	nt
N#Cc1c(/N=C/c2ccc3c(c2)OCO3)oc(-c2ccccc2)c1-c1ccccc1	84*	7	74	31432
N#Cc1c(/N=C/c2ccc(Cl)cc2)oc(-c2ccccc2)c1-c1ccccc1	109	nt	nt	nt
COc1nc(Nc2ccc(OC(F)(F)F)cc2)nc(NC2CC2)n1	nt	11	nt	nt
CNC(=O)NC(=O)CN1CCCc2cc(C)ccc21	nt	-29	nt	nt
CCCN1CCCc2cc(CN)ccc21	65*	-13	51*	9116*
CCN1CCCc2cc(O)ccc21	-9.7*	-5	8.3*	5580*
CC(C)N1CCCc2cc(CN)ccc21	nt	26	nt	nt
CCC(C)NC(=O)c1ccc2nc(-c3cccs3)c(-c3cccs3)nc2c1 (stereo not given)	98	nt	nt	nt
Cc1c(Nc2nc3nonc3nc2Nc2ccccc2F)c(=O)n(-c2ccccc2)n1C	126	-7	68	44712
Cc1c(Nc2nc3nonc3nc2Nc2ccc(F)cc2)c(=O)n(-c2ccccc2)n1C	106	nt	nt	nt
O=C(Nc1ccccc1F)c1ccc(-n2nc(OCc3cccc(F)c3)ccc2=O)cc1	104	-14	nt	nt
S=C1NCc2ccsc2S1	49*	-242	51*	31760*
COc1cccc(NC(=O)COC(C)=O)c1	nt	-5	nt	nt
O=C(Cc1cccs1)N1CCN=C1SCc1ccccc1	103	-33	nt	nt
N=c1c(C(N)=O)cc2c(=O)n3ccccc3nc2n1C1CCCC1	90	-125	70	36264
CCOC(=O)c1cc2c(=O)n3ccccc3nc2n(C2CCCCC2)c1=N	107	-35	nt	nt
COc1ccc(C(=O)Nn2c(-c3ccc(F)cc3)nc3ccccc3c2=O)cc1Br	104	-8	nt	nt
N#C/C(=N\Nc1ccc(C(=O)O)cc1)C(=O)c1ccccc1	nt	-58	nt	nt
N#Cc1ccc(NC2=NS(=O)(=O)c3ccccc32)cc1	92	-2	77	35009
O=S1(=O)N=C(Nc2ccccc2)c2ccccc21	nt	-22	nt	nt
O=C(CCNc1ccc(Cc2ccncc2)cc1)c1ccc(Cl)cc1	nt	-22	nt	nt
Cc1ccc(C)c(CNC(=O)Nc2nc(C)ns2)c1	nt	-13	nt	nt
O=C(Nc1cccc(C(=O)Nc2ccc(S(=O)(=O)O)c3cc(S(=O)(=O)O)cc(S(=O)(=O)O)c23)c1)Nc1cccc(C(=O)Nc2ccc(S(=O)(=O)O)c3cc(S(=O)(=O)O)cc(S(=O)(=O)O)c23)c1	0.1*	-42	33*	3059*
O=C(O)c1cccc(NC(=O)c2cccc(S(=O)(=O)Nc3cccc(C(=O)O)c3)c2)c1	95	nt	nt	nt
O=C(/C=C/Sc1ccccn1)c1ccccc1	86	-10	63	40583
O=C(/C=C/Sc1nc2ccccc2o1)c1ccccc1	101	-22	nt	nt
O=c1cc(CSc2nnc(-c3cccc(Cl)c3)o2)nc2sccn12	101	-23	nt	nt
Cc1[nH]c(=O)[nH]c(=O)c1S(=O)(=O)NCCO	103	-10	nt	nt
O=c1[nH]c(NCCO)c(I)c(=O)[nH]1	57*	67*	43*	2885*
Cc1cc(C)nc(NC(c2cccnc2)c2cc(C)sc2NC(=O)c2ccccc2)n1 (stereo not given)	108	-5	nt	nt
O=C(CN1C2=NCCCN2c2ccccc21)c1ccc(Cl)c(Cl)c1	115	nt	nt	nt

The last 2 entries of the part before lead into the next.
SMILES	GIV-Gai inh	HCMV NEC inh	GIV Gai FP conf	GIV-Gai AS conf
Cc1cc(C)nc(NC(c2cccnc2)c2cc(C)sc2NC(=O)c2ccccc2)n1 (stereo not given)	108	-5	nt	nt
O=C(CN1C2=NCCCN2c2ccccc21)c1ccc(Cl)c(Cl)c1	115	nt	nt	nt
O=C(CN1C2=NCCCN2c2ccccc21)c1ccc(Cl)cc1	90	nt	68	45914
COc1ccc(C(O)C(F)(F)F)cc1 (stereo not given)	99	1	nt	nt
CCCCOC(=O)Cn1c(=O)c2c(nc3n2CCCCN3c2ccc(OCC)cc2)n(C)c1=O	100	0	nt	nt
CCc1c(C)nc(-n2nc(C)cc2C)nc1Nc1ccccc1	98	-4	nt	nt
CCOC(=O)c1sc2nc[nH]c(=O)c2c1C	103	nt	nt	nt
CCOC(=O)c1cccc(NC(=O)c2sc3nc[nH]c(=O)c3c2C)c1	92	nt	78	34553
Cc1cccc(CNC(=O)c2oc3c(c2C)-c2nn(Cc4cccc(Cl)c4)cc2CC3)c1	101	8	nt	nt
CCn1cc2c(n1)-c1c(oc(C(=O)NCc3cccnc3)c1C)CC2	83*	nt	53	10636*
CCn1cc2c(n1)-c1c(oc(C(=O)Nc3ccc(Cl)cc3)c1C)CC2	81*	nt	54	16212*
CC(=O)Nc1ccc(NC(=O)c2oc3c(c2C)-c2nn(Cc4ccccc4Cl)cc2CC3)cc1	99	0	nt	nt
COCCNC(=O)Cn1cc2c(n1)-c1c(oc(C(=O)N3CCCC3)c1C)CC2	70*	nt	66*	26569
CCOCCCNC(=O)Cn1cc2c(n1)-c1c(oc(C(=O)N3CCCC3)c1C)CC2	97	nt	nt	nt

An excerpt from above, limited to GIV-Gai inh.
smiles	GIV-Gai inh
O=C(CN1C2=NCCCN2c2ccccc21)c1ccc(Cl)cc1	90
COCCNC(=O)Cn1cc2c(n1)-c1c(oc(C(=O)N3CCCC3)c1C)CC2	70*

(list continues)
SMILES	GIV-Gai inh	HCMV NEC inh	GIV Gai FP conf	GIV-Gai AS conf
COc1cc(C)c(NS(=O)(=O)c2cccs2)cc1OC	nt	-30	nt	nt
C=CCNc1nc2c([nH]c3ccccc32)s1	87	nt	56*	13174*
C=CCSc1nnc2c(n1)[nH]c1ccccc12	103	-34	nt	nt
CC1(C)OC(=O)C(=Cc2ccc(-c3ccc(S(N)(=O)=O)cc3)o2)C(=O)O1	87	-42	67	4423*
CN1C(=O)/C(=C\c2ccc(-c3ccc(S(N)(=O)=O)cc3)o2)c2ccccc21	nt	-34	nt	nt
COc1ccc(OC)c(NC(=O)N2CCN(c3nc4ccccc4n4cccc34)CC2)c1	98	nt	nt	nt
COc1ccc(Cl)cc1NC(=O)N1CCN(c2nc3ccccc3n3cccc23)CC1	83*	nt	77	24336
COc1ccc(CC(=O)NCCn2ccc3ccccc32)cc1	106	6	nt	nt
Cc1ccc2nc(S/C=C/C(=O)c3ccccc3)[nH]c2c1	89	-11	62	38936
O=C(/C=C/Sc1nc2cc(Cl)c(F)cc2[nH]1)c1ccccc1	104	-21	nt	nt
COc1ccc(/C=C2\C=C(c3ccccc3)N(c3ccc(Br)cc3C)C2=O)cc1Br	110	nt	nt	nt
COc1ccc(/C=C2\C=C(c3ccccc3)N(c3ccc(Br)cc3C)C2=O)cc1	34*	nt	65	40529
CCOc1ccc(C(c2c(C)[nH]n(-c3ccccc3)c2=O)c2c(C)[nH]n(-c3ccccc3)c2=O)cc1	101	nt	nt	nt
Cc1[nH]n(-c2ccccc2)c(=O)c1C(c1ccc(C#N)cc1)c1c(C)[nH]n(-c2ccccc2)c1=O	71*	nt	66	33414
CCCCCCOc1ccc(C(c2c(C)[nH]n(-c3ccccc3)c2=O)c2c(C)[nH]n(-c3ccccc3)c2=O)cc1	62*	nt	67	11116*
Cc1ccc(COc2ccc(C(c3c(C)[nH]n(-c4ccccc4)c3=O)c3c(C)[nH]n(-c4ccccc4)c3=O)cc2)cc1	115	nt	nt	nt
Cc1[nH]n(-c2ccccc2)c(=O)c1C(c1cc([N+](=O)[O-])ccc1O)c1c(C)[nH]n(-c2ccccc2)c1=O	76*	nt	64	23681*

3 entries already listed, arranged by length of the SMILES, smallest number first:
SMILES	GIV-Gai inh	HCMV NEC inh	GIV Gai FP conf	GIV-Gai AS conf
COc1ccc(/C=C2\C=C(c3ccccc3)N(c3ccc(Br)cc3C)C2=O)cc1	34*	nt	65	40529
CCOc1ccc(C(c2c(C)[nH]n(-c3ccccc3)c2=O)c2c(C)[nH]n(-c3ccccc3)c2=O)cc1	101	nt	nt	nt
CCCCCCOc1ccc(C(c2c(C)[nH]n(-c3ccccc3)c2=O)c2c(C)[nH]n(-c3ccccc3)c2=O)cc1	62*	nt	67	11116*
